Binding of CDR-mutated scFvs to a peptide of the spike HR2 region

The measurements come from Li et al. 2023 (doi:10.1038/s41467-023-39022-2) through the FLAb antibody collection.

Antigen: PDVDLGDISGINAS, a 14-residue peptide of the SARS-CoV-2 spike HR2 region.

Parent: Ab-14, a human scFv built as VH, three GGGGS repeats, VL. Only the CDRs of the light chain vary.
VH: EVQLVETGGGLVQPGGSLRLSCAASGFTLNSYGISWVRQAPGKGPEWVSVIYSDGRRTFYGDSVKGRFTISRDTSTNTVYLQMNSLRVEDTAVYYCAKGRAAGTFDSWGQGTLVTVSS
VL: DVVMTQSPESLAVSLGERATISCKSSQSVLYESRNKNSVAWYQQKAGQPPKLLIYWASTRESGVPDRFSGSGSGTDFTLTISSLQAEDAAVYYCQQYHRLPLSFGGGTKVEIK

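The starting antibody came from a phage panning campaign against this peptide. Designed CDR sequences, proposed from the first random library and measured here. Their group label is 14L_En_Gen (En: ensemble of fine-tuned language models; Gen: genetic algorithm). AlphaSeq pools MATa yeast showing the antibodies with MATalpha yeast showing the peptide. Binding brings cells together so that they mate, and sequencing counts the barcode pairs among the diploids. A regression on co-assayed BCL2-family reference pairs converts the normalised counts of each replicate to an apparent Kd. Mating was done six times.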

Each variant's VL is given in full. Numbers give log10(Kd / nM), so 0 is 1 nM and 3 is 1 µM. Smaller is tighter. Where no diploid with the target was found in that replicate, the entry reads "nd": below detection, most likely a poor binder, though not proof of it. Values of this round are not directly comparable with the first-round values of the same sequences. In the paper, a design with two or fewer of six values counts as a poor binder. Nonspecific signal, from three strains lacking the peptide, appeared in 4% of pairings of all light chain designs, centred on 2.64 (5% of these signals below 1.59); values are not corrected for it. For each scFv, signals with the empty controls are counted beside the result, with their mean in brackets.

VL	log10 Kd (nM) by replicate	signal with controls
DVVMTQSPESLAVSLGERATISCMLSQMWAIGNKVSNSVAWYQQKAGQPPKLLIYQASTRFNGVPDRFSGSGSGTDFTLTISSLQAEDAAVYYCQQYDRLPLIFGGGTKVEIK	2.01 0.94 1.09 2.04 3.09 1.81	0/18
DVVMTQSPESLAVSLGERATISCKIGMTLNQLLHQKNNVAWYQQKAGQPPKLLIYDLVTRENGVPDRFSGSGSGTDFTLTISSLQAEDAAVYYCQQYHRLPLSFGGGTKVEIK	1.01 0.72 0.49 0.31 0.50 0.61	0/18
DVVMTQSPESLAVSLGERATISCMISQVMNTLTRHGNNVAWYQQKAGQPPKLLIYDLQNREDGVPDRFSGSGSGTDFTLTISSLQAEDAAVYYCQQYFRLPLSFGGGTKVEIK	-0.05 nd 1.47 0.34 0.64 0.25	0/18
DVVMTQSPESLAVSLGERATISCKISFLQNQTFEESNNVAWYQQKAGQPPKLLIYEMVTREKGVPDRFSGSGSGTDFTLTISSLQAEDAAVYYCQQYNRLPLSFGGGTKVEIK	1.70 1.34 1.65 1.37 1.71 1.75	0/18
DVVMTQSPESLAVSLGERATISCKITQTMRFEQKNSNNIAWYQQKAGQPPKLLIYEVTLRSKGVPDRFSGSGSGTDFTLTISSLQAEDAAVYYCQQYYRLPLSFGGGTKVEIK	1.45 0.89 0.82 0.97 1.13 1.29	0/18
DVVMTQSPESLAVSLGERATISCKLSMLTEMSHVNRNSVAWYQQKAGQPPKLLIYELVTRMSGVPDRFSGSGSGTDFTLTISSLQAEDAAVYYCQQYNRLPLSFGGGTKVEIK	0.88 0.85 1.09 0.95 0.95 0.96	0/18
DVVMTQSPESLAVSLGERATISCKLGMTLNELMMKKNNVAWYQQKAGQPPKLLIYDLVMRENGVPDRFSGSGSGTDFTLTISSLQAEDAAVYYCQQYHRLPLSFGGGTKVEIK	0.15 -0.20 -0.41 -0.04 -0.37 -0.25	0/18
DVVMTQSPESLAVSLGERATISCKLSMVTGHMSMAKNNVAWYQQKAGQPPKLLIYEMETREKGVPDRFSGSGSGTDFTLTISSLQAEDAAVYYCQQYERLPLSFGGGTKVEIK	0.30 0.62 0.40 0.34 0.16 0.67	2/18 (3.52)
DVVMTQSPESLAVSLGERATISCHITYGMYVAGRHHSSIAWYQQKAGQPPKLLIYQAETRAKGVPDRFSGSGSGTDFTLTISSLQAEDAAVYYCQQYDRLPLIFGGGTKVEIK	1.77 2.25 1.91 2.08 3.76 1.84	0/18
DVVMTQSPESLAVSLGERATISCMISQLMNMGQFAINSVAWYQQKAGQPPKLLIYQAQIRNQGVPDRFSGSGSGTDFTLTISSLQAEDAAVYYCQQYDRLPLIFGGGTKVEIK	nd nd nd 2.68 nd nd	0/18
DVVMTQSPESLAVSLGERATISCQIYQAMHTLMQAKNNIAWYQQKAGQPPKLLIYDVTNRNQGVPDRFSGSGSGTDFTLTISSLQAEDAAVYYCQQYHRLPLSFGGGTKVEIK	0.67 0.18 0.26 0.63 0.20 0.41	0/18
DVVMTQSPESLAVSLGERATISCTITEFMGNLSQNRNSVAWYQQKAGQPPKLLIYDTSTSGDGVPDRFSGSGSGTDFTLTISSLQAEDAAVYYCQSYDRLPLSFGGGTKVEIK	2.96 3.54 nd nd 3.29 2.68	1/18 (3.07)
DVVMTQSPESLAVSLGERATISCKITATMRFEQKNTNNIAWYQQKAGQPPKLLIYEVSTRSKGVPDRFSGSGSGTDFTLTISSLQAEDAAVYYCQQYVRLPLAFGGGTKVEIK	0.60 0.70 0.51 0.70 0.92 0.58	0/18
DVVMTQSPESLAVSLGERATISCTLYGLSVSMAKNKNSVAWYQQKAGQPPKLLIYEMTTREKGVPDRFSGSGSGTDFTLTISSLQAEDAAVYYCQQYDRLPLIFGGGTKVEIK	1.43 2.05 2.35 1.81 2.60 2.70	2/18 (2.02)
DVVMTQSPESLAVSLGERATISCMISQLMNMGQFAINSVAWYQQKAGQPPKLLIYQANERSNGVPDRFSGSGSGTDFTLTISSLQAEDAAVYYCQQYDRLPLMFGGGTKVEIK	nd 2.48 1.73 1.16 nd nd	0/18
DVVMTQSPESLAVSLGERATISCTISQVMNTLERHGNNVAWYQQKAGQPPKLLIYDLENREDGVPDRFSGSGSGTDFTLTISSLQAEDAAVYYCQQYFRLPLSFGGGTKVEIK	nd 0.68 1.82 0.19 nd nd	0/18
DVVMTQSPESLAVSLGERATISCQIYQAMHTLSQVKDNVAWYQQKAGQPPKLLIYDVSERGSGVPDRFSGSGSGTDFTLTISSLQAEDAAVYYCQQYFRLPLSFGGGTKVEIK	0.27 0.34 0.62 0.51 0.23 0.46	1/18 (4.04)
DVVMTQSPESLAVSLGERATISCKISMLINMTFEESNNVAWYQQKAGQPPKLLIYEMVTREKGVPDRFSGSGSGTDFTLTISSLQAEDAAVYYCQQYNRLPLSFGGGTKVEIK	nd 2.21 2.34 2.59 1.69 1.98	3/18 (2.77)

Picked from the list: the 2 lowest averages where every replicate gave a value.

VL	log10 Kd (nM) by replicate	signal with controls
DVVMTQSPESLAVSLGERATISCKLGMTLNELMMKKNNVAWYQQKAGQPPKLLIYDLVMRENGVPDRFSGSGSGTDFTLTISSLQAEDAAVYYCQQYHRLPLSFGGGTKVEIK	0.15 -0.20 -0.41 -0.04 -0.37 -0.25	0/18
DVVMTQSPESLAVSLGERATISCQIYQAMHTLMQAKNNIAWYQQKAGQPPKLLIYDVTNRNQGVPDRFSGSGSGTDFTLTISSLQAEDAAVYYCQQYHRLPLSFGGGTKVEIK	0.67 0.18 0.26 0.63 0.20 0.41	0/18